Reference: US10500304B2, “Films and methods of manufacture” (priority 2013, dated 2019)

Test: Implantation of sleeve-covered metal plates in sheep
Details: released from the polymer film, sheep studies

Peak plasma gentamicin levels: ~0.1 µg/mL
Substance: gentamicin
